Assay results reported in ChEMBL document CHEMBL5241093, “Recent advances in the design and discovery of synthetic tyrosinase inhibitors” (Eur J Med Chem, 2021).
pIC50: −log10 of the molar value.

Tests used:
[1] = target: T1, Tyrosinase (Agaricus bisporus, UniProt O42713); experiment: Inhibition of mushroom tyrosinase using L-DOPA as substrate assessed as diphenolase activity
T1 sequence (O42713 whole entry): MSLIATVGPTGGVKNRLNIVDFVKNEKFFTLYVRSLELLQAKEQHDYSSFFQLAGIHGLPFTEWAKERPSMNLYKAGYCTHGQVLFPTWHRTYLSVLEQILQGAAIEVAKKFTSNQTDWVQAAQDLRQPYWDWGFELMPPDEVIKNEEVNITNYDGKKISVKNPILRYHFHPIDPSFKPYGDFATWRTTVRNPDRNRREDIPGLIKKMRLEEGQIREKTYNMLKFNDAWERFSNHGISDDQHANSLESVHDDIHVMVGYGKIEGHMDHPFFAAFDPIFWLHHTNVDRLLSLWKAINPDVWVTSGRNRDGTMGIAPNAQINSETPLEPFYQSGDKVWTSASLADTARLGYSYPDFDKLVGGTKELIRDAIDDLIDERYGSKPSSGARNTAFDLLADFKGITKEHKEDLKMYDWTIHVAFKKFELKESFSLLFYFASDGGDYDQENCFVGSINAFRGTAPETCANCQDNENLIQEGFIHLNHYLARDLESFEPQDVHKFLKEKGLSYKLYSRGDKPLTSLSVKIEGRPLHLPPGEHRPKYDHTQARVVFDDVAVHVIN

[2] = target: T1, Tyrosinase; experiment: Inhibition of mushroom tyrosinase using L-tyrosine as substrate assessed as monophenolase activity

O=C(/C=C/c1ccc(O)cc1O)c1ccco1 was tested. Which pIC50 [1] did it give?
Its pIC50 is 7.36.

What about the pIC50 [2] of the same compound?
The pIC50 was 6.55.
